Earlier results on one compound are cited in US20220175738A1, “Tip60 Inhibitors and Methods of Use for Cardiovascular Disease” (The Medical College of Wisconsin, Inc., priority 2019, published 2022).

Protein sequences, listed by entry. Tags and fused reporters are not part of them.
UniProt Q92993, whole entry, species assumed: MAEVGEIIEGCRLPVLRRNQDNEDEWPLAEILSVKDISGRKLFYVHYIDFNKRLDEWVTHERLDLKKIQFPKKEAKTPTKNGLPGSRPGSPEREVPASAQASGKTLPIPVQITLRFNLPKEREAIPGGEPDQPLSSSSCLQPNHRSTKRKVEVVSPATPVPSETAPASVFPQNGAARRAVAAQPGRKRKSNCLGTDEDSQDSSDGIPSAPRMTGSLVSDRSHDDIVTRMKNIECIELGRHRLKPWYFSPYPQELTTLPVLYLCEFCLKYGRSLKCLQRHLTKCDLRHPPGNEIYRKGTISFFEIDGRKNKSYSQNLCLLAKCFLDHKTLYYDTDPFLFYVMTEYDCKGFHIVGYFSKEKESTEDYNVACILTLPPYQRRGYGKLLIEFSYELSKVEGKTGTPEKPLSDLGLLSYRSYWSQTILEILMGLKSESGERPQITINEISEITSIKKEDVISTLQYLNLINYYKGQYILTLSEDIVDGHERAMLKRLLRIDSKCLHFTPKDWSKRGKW
UniProt Q09472, whole entry, species assumed: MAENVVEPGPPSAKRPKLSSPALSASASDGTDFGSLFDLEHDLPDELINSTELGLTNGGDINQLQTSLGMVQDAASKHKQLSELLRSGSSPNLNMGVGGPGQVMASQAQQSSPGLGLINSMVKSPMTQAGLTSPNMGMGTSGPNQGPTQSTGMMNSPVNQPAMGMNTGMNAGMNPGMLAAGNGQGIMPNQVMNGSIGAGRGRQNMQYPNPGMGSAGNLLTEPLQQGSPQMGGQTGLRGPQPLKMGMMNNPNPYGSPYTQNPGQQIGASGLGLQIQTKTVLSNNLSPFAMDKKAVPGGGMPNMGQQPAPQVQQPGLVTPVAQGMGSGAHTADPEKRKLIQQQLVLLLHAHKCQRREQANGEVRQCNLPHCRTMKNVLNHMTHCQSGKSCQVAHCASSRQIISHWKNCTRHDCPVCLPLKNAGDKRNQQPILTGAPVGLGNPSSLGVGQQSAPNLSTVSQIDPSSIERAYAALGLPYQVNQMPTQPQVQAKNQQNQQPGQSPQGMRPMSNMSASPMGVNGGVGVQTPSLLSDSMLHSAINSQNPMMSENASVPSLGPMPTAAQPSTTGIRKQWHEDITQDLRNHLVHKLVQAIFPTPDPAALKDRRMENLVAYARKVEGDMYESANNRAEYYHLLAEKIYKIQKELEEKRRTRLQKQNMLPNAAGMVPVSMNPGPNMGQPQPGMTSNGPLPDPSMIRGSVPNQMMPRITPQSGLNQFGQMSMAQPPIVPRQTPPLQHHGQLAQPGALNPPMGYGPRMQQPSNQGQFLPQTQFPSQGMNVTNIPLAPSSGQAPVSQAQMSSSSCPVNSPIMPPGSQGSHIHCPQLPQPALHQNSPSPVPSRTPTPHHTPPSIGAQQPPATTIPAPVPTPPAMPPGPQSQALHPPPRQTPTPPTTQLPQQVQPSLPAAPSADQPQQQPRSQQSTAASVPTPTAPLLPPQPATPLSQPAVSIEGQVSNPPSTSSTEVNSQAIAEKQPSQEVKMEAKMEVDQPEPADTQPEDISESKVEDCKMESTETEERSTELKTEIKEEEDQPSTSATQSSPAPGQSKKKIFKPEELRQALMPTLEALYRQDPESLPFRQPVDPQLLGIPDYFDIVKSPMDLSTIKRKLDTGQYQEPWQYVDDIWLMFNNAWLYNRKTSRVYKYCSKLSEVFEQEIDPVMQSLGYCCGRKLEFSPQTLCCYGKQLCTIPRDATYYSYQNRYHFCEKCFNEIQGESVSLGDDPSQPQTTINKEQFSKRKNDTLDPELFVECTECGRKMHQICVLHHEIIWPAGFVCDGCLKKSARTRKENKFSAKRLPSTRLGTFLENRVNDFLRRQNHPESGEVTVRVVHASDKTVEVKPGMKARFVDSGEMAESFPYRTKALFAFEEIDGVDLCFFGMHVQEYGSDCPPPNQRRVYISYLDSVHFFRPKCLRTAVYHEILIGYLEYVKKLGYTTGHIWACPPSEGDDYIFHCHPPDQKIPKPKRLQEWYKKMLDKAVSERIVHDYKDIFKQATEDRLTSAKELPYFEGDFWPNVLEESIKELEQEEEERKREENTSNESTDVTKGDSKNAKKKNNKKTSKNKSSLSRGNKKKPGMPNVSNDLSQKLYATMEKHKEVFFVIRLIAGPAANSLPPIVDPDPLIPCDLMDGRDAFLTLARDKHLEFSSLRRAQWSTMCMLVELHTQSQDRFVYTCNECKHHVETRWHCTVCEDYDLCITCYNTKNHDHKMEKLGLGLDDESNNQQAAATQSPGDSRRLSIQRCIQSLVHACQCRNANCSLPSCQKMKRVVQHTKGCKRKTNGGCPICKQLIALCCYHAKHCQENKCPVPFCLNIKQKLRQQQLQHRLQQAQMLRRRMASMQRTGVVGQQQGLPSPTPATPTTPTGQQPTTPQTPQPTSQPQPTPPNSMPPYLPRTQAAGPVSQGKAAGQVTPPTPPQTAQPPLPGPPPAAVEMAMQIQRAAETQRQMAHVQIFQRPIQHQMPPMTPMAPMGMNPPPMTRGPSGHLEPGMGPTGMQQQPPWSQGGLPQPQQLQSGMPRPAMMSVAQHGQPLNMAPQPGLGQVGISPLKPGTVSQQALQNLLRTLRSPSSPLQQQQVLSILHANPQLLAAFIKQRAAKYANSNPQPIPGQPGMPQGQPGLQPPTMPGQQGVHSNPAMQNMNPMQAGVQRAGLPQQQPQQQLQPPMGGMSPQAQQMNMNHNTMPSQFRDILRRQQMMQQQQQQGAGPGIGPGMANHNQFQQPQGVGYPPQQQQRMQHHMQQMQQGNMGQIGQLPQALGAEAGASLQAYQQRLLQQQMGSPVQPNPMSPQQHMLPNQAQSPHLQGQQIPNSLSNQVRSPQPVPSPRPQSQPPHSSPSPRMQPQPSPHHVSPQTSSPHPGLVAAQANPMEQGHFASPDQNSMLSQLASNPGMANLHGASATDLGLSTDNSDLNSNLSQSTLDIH
UniProt Q92831, whole entry, species assumed: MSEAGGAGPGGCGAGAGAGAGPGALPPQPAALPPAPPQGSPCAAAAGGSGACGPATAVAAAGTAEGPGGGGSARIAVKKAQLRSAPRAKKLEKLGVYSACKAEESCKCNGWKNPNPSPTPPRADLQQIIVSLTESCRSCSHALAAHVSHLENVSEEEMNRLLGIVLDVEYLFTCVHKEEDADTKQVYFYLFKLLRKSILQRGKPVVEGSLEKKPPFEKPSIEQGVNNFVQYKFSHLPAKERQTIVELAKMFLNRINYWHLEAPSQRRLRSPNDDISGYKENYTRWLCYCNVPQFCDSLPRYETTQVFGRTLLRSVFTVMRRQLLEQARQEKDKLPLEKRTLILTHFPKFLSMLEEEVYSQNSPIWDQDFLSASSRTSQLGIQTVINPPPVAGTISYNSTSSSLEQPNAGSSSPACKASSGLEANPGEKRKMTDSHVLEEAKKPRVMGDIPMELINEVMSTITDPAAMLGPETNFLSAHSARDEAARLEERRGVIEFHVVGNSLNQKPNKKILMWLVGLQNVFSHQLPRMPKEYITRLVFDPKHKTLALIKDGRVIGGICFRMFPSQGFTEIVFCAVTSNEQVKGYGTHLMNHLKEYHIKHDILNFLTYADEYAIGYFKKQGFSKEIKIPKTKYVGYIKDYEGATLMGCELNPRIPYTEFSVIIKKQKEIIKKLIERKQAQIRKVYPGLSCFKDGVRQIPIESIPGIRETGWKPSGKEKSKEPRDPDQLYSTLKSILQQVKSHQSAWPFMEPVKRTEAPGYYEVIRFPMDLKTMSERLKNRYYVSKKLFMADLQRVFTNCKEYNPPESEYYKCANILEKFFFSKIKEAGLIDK
UniProt Q92830, whole entry, species assumed: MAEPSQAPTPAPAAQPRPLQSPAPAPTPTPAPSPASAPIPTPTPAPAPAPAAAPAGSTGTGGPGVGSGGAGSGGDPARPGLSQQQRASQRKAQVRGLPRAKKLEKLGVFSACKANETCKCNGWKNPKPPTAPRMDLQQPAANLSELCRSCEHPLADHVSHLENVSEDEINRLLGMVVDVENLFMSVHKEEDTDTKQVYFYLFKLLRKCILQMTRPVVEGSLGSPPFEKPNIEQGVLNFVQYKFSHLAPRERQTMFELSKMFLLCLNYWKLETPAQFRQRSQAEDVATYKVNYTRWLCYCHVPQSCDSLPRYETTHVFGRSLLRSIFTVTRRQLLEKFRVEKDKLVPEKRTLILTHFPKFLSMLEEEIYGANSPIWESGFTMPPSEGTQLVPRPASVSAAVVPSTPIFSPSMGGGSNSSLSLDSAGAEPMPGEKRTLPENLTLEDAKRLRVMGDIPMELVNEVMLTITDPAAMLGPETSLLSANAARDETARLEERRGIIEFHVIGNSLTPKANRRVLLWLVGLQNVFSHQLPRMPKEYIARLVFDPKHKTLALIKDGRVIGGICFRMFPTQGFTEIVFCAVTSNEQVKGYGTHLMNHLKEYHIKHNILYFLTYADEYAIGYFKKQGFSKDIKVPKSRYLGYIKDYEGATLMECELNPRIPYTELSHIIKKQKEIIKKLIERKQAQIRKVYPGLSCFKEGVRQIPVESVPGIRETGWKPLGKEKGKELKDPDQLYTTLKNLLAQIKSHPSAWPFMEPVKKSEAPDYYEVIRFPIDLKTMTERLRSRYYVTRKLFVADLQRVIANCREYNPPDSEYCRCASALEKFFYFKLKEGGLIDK

For one series, the target named is Tip60 (Homo sapiens, UniProt Q92993). As to conditions: HAT domain; cited from earlier work.
In a further series the target is p300 (Homo sapiens, UniProt Q09472). As to conditions: acetylase domain; cited from earlier work.
The next series has as its target pCAF (Homo sapiens, UniProt Q92831). The conditions noted are these: acetylase domain; cited from earlier work.
The target of another series is GCN5 (Homo sapiens, UniProt Q92830). The conditions noted are these: acetylase domain; cited from earlier work.

Turning to `c1cc(SSc2ccns2)sn1` [NU9056], the IC50 at Tip60 was less than 2 µM; at p300, 60 µM; at pCAF, 36 µM; on GCN5, more than 100 µM.

One may read the IC50 as the concentration that inhibits the measured activity by half.
